Test system: G3BP-1 and G3BP-2
Assay: Co-immunoprecipitation with G3BP-1 antibody, detection of G3BP-2 (ternary complex) in BHK cells
Assay type: binding
Settings: G3BP-1 IP, 16 h after transfection

EGFP-USP10_1–40
G3BP-2 detected in G3BP-1 immunoprecipitate: not in EGFP-USP10_1–40 bound complexes
